Results published in PubChem BioAssay AID743126 (The Scripps Research Institute Molecular Screening Center, 2013).
The entries are a selection whose mix differs from that of the whole data set. Activity calls are given as the source filed them.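 Rule for the calls: active = inhibition above mean plus 3 SD of compounds lying within the high and low control bounds (cut at about 19% in these data); inactive = the rest.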

By UniProt entry, the sequences of proteins in these tests, tags left out. Where a name states a change or a piece, a line headed by the entry shows the natural chain unless it says otherwise.
UniProt Q9NZ20: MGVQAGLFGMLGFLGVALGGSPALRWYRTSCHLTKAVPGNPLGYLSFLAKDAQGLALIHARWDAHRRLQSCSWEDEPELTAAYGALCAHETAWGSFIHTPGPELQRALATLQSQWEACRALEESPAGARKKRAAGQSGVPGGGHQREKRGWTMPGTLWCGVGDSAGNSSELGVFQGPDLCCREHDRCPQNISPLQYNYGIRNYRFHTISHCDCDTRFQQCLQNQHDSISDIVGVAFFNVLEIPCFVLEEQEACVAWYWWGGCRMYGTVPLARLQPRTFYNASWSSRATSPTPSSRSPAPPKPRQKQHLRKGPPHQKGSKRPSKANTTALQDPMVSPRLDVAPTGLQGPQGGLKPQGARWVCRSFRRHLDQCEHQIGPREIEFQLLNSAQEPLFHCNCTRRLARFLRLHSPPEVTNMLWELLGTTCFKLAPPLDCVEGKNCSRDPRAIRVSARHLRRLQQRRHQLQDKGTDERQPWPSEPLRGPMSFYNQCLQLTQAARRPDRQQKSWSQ

What follows are compounds tested against Group 3 secretory phospholipase A2 (Homo sapiens) (UniProt Q9NZ20) (assay: HGIII-sPLA2 enzyme inhibition – biochemical, QFRET, BODIPY PC-A2 liposome substrate, primary screen (AID 743126;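 note: 0% = median of test compound wells and 100% = no enzyme DMSO wells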)). Settings: QFRET BODIPY PC-A2 liposome hydrolysis, fluorescence; at 12.2 µM; stronger effect = higher value.

Row | Structure (SMILES) | inhibition
1 | O=C(OC1CN2CCC1CC2)c1ccccc1 (stereo unspecified) | inactive: 6.26%
2 | CC(=O)NC(SC(=S)N(CC(C)C)CC(C)C)C(Cl)(Cl)Cl (stereo unspecified) | inactive: 1.65%
3 | Cc1ccc(OP(=O)(Nc2ccccn2)Oc2ccc(C)cc2)cc1 | inactive: -7.03%
4 | COC(=O)c1cc2c(s1)N=C(c1ccccc1)N(C)P2(=O)N1CCOCC1 (stereo unspecified) | inactive: -0.54%
5 | O=c1c2cc([N+](=O)[O-])ccc2[nH]c2c([N+](=O)[O-])cc([N+](=O)[O-])cc12 | inactive: -7.57%
6 | CN(C)C(=O)Oc1noc2ccccc12 | inactive: -3.5%
7 | CC(NC(=O)COC(=O)C(O)(c1ccccc1)c1ccccc1)c1ccccc1 (stereo unspecified) | inactive: -6.41%
8 | Cc1ccccc1OP(=O)(Nc1ccccn1)Oc1ccccc1C | inactive: 7.32%
9 | CCOc1ccc(C2=NCC(CBr)S2)cc1 (stereo unspecified) | inactive: 0.81%
10 | O=P1(Nc2nc3ccc(Cl)cc3s2)COc2ccccc2O1 (stereo unspecified) | inactive: -1.1%
11 | CC(C)(C)C(=O)NC(Sc1ccccc1)C(Cl)(Cl)Cl (stereo unspecified) | inactive: 2.21%
12 | CCc1cc(O)c([N+](=O)[O-])c(C)c1[N+](=O)[O-] | inactive: -10.4%
13 | C[C@H]1OP(=O)(Oc2ccccc2)C[C@@H]2O[C@@H]21 (stereo partly specified) | inactive: 5.09%
14 | C[C@@H]1C=CCP(=O)(Oc2ccccc2)O1 (stereo partly specified) | inactive: 6.17%
15 | Cc1ccccc1CN(C)C(=O)COC(=O)C(O)(c1ccccc1)c1ccccc1 | inactive: -7.29%
16 | COC(=O)C1(C)COP(=O)(NCc2ccccc2)OC1 (stereo unspecified) | inactive: 13.7%
17 | CC(=O)c1ccc(N2CC2c2ccncc2)cc1 (stereo unspecified) | inactive: -1.06%
18 | N#C/C(=C\c1ccc(N(CCBr)CCBr)cc1)C(N)=O | inactive: -2.84%
19 | CC(=O)Nc1ccc(Oc2c([N+](=O)[O-])cc([N+](=O)[O-])cc2[N+](=O)[O-])cc1 | inactive: 1.52%
20 | CC(=O)Nc1ccc([As](=O)(O)O)c(O)c1 | inactive: 0.1%
21 | CC(C)C(=O)NC(Sc1ccccc1)C(Cl)(Cl)Cl (stereo unspecified) | inactive: 9.95%
22 | O=P(Nc1nccs1)(c1ccccc1)c1ccccc1 | inactive: 1.1%
23 | c1nnnn1CCn1cnnn1 | inactive: 0.43%
24 | O=P(Nc1ccccn1)(c1ccc(Br)cc1)c1ccc(Br)cc1 | inactive: 0.07%
25 | CN(C)C1(CNC(=O)c2ccc(Cl)c(S(N)(=O)=O)c2)CCCCC1 | inactive: -1.99%
26 | COc1ccc(N)c([N+](=O)[O-])c1[N+](=O)[O-] | inactive: 15.1%

Row | Structure (SMILES) | inhibition
27 | Nc1ccc(CCCCOc2ccccc2)cc1 | inactive: 3.09%
28 | C[C@H]1OP(=O)(Oc2ccccc2)[C@H](O)[C@H](O)[C@H]1N=[N+]=[N-] (stereo partly specified) | inactive: 4.32%
29 | O=P(Nc1nc2ccccc2s1)(c1ccccc1)c1ccccc1 | inactive: -11.9%
30 | O=[As](O)(c1ccccc1)c1ccc(O)cc1 | inactive: 8.63%
31 | CC(=O)NC(SC(=S)N(C)C)C(Cl)(Cl)Cl (stereo unspecified) | inactive: 7.94%
32 | O=[N+]([O-])c1ncn(CCn2cnc([N+](=O)[O-])n2)n1 | inactive: 4.52%
33 | O=C(OC1CN2CCC1CC2)c1cccc(Cl)c1 (stereo unspecified) | inactive: -2.4%
34 | C(Cc1nn[nH]n1)Cc1nn[nH]n1 | inactive: 0.86%
35 | Nc1ccc([As](=O)(O)c2ccc([N+](=O)[O-])cc2)cc1 | inactive: -2.15%
36 | C/C(N)=N\P(=O)(OCc1ccccc1)OCc1ccccc1 | inactive: 4.45%
37 | CC1CCC(C(C)C)C(OP(=O)(Nc2ccccn2)c2ccccc2)C1 (stereo unspecified) | inactive: 2.75%
38 | Cc1ccc(C(=O)OC2CN3CCC2CC3)cc1 (stereo unspecified) | inactive: 0.46%
39 | Cc1nn(-c2ccccc2)c2c1P(=O)(N1CCOCC1)N(C)C(c1ccccc1)=N2 (stereo unspecified) | inactive: -3.24%
40 | CN(C)C1(CNC(=O)c2ccc(S(C)(=O)=O)cc2)CCCCC1 | inactive: 4.9%
41 | CCCC1OP(=O)(Nc2ccccc2)OCC1CC (stereo unspecified) | inactive: 8.84%
42 | O=C(/C=C/c1ccccc1)OC1CN2CCC1CC2 (stereo unspecified) | inactive: -12.3%
43 | Cc1ccc(S(=O)(=O)N(CCCN)CCCc2c(C)nc(N)[nH]c2=O)cc1 | inactive: -2.78%
44 | O=P1(Nc2ncccn2)COc2ccccc2OC1 | inactive: 1.22%
45 | Nc1cccc([As](=O)(O)c2ccccc2)c1 | inactive: -4.34%
46 | Cc1ccc(OCC(=O)OC2CN3CCC2CC3)cc1 (stereo unspecified) | inactive: 0.28%
47 | O=[As](O)(c1cccs1)c1cccs1 | inactive: 10.6%
48 | O=P1(Nc2ccc(Br)cn2)COc2ccccc2OC1 | inactive: 2.24%
49 | NS(=O)(=O)c1cccc(NC(=O)COC(=O)C(O)(c2ccccc2)c2ccccc2)c1 | inactive: -14.7%
50 | CCOP(=O)(NC(=NC(C)c1ccccc1)NC(C)c1ccccc1)OCC (stereo unspecified) | inactive: -1.03%
51 | O=P1(Nc2ccccn2)COc2ccccc2OC1 | inactive: -0.71%
